# Reference: paper PMC4896453
# B1: Dynorphin-A (peptide)
# chain: YGGFLRRIRPKLKWDNQ
# modifications: not checked
# Biological target: human Kappa (κ) opioid receptor (human), P41145
# Test: radioligand binding; displacement of ~0.8 nM [3H]-DPN from CHOhMu, CHOhDelta or CHOhKappa membranes (40 μg protein) in 0.5 ml 50 mM Tris, 0.5% BSA; displacing ligand 10 μM-1 pM; non-specific binding with 10 μM naloxone; 1 hr at room temperature; filtration; 50% displacement corrected for the radioligand to give pKi
binder,measurement,value
B1,pKi,10.2
